Source: patent US10807993B2, “Dihydrochromene derivatives” (Sumitomo Dainippon Pharma Co., Ltd., priority 2018, dated 2020)

Sequences of proteins named here, by UniProt entry; tags and fusion partners are left off.
UniProt Q12809, whole entry: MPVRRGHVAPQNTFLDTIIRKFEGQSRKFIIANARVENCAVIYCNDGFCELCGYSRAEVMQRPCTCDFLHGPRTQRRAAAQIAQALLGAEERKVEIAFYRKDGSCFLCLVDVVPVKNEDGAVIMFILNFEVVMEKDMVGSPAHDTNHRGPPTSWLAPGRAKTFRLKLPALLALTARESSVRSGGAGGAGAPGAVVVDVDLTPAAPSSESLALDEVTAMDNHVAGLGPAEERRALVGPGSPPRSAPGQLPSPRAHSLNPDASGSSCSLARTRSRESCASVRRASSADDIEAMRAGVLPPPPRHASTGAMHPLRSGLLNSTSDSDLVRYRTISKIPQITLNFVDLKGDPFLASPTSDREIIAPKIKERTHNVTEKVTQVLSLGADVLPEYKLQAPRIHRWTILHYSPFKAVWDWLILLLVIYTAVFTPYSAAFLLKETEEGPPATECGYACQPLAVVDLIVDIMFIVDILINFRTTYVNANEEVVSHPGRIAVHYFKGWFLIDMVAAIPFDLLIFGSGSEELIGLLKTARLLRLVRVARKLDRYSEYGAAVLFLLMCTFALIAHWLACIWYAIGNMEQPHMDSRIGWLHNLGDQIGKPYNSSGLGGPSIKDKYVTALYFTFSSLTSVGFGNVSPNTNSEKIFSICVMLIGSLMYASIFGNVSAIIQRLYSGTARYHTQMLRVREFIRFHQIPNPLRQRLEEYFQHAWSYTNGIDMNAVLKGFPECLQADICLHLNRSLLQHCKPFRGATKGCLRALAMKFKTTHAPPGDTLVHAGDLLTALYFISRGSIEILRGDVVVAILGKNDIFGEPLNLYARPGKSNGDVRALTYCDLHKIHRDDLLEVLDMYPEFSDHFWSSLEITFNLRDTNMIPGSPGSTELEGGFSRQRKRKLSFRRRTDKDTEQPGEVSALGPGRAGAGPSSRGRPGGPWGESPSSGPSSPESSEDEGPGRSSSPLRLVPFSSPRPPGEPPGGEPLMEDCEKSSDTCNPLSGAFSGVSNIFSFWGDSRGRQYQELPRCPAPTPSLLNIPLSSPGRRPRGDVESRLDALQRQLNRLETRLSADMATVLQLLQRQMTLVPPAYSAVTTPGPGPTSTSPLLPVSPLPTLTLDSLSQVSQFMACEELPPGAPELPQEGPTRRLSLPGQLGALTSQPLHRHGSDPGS

Columns and labels:
hERG = hERG (Homo sapiens (Human), UniProt Q12809); experiment: Test for evaluating hERG inhibition (QPatch HT, CHO cell strain stably expressing hERG); assay type: cell-based; settings: for hERG/HT-29: hERG IC50 (Test 2) divided by HT-29 sphere IC50 (Test 1); for deviation between the concentration of inhibiting 50% cell proliferation and the concentration of inhibiting 50% hERG current: summary in words of hERG/HT-29
HT-29 cells = experiment: Inhibition test for sphere formation assay of cancer cells; settings: for IC50: read-out: Sphere IC50 value (concentration for 50% inhibition of cell proliferation), sphere culture (ultra-low attachment, serum-free), 4 days, CellTiter-Glo; for activity for inhibiting cell proliferation in the sphere culture condition: summary in words

IC50 (HT-29 cells) [nM]	Compound	hERG/HT-29 (hERG)	deviation between the concentration of inhibiting 50% cell proliferation and the concentration of inhibiting 50% hERG current (hERG)	activity for inhibiting cell proliferation in the sphere culture condition (HT-29 cells)
< 10	Cn1cncc1CN1CCC2(CC1)COC1c3cc(Cl)ccc3OC(C)(C)C1C2 (stereo not shown)	>80	good deviation	potent activity
< 10	Cn1cncc1CN1CCC2(CC1)COC1c3ccc(Cl)cc3OC(C)(C)C1C2 (stereo not shown)	>140	good deviation	potent activity
1200	CC1(C)Oc2ccc(Cl)cc2C2OCC3(CCN(C(=O)Cn4cnc(CO)c4)CC3)CC21 (stereo not shown)	–	–	–

Compound	IC50 (HT-29 cells) [nM]	hERG/HT-29 (hERG)	deviation between the concentration of inhibiting 50% cell proliferation and the concentration of inhibiting 50% hERG current (hERG)	activity for inhibiting cell proliferation in the sphere culture condition (HT-29 cells)
Cc1nc[nH]c1CN1CCC2(CC1)COC1c3ccc(Cl)cc3OC(C)(C)C1C2 (single isomer, unassigned)	40	–	–	–
